Data taken from ChEMBL document CHEMBL1129799, “Homology modeling of metabotropic glutamate receptors. (mGluRs) structural motifs affecting binding modes and pharmacological profile of mGluR1 agonists and competitive antagonists” (J Med Chem, 1996).

Chains of the proteins cited; added tags and fusions are not shown. Lines headed by an entry give the natural chain unless they say otherwise; changes in a name come on top.
UniProt Q13255: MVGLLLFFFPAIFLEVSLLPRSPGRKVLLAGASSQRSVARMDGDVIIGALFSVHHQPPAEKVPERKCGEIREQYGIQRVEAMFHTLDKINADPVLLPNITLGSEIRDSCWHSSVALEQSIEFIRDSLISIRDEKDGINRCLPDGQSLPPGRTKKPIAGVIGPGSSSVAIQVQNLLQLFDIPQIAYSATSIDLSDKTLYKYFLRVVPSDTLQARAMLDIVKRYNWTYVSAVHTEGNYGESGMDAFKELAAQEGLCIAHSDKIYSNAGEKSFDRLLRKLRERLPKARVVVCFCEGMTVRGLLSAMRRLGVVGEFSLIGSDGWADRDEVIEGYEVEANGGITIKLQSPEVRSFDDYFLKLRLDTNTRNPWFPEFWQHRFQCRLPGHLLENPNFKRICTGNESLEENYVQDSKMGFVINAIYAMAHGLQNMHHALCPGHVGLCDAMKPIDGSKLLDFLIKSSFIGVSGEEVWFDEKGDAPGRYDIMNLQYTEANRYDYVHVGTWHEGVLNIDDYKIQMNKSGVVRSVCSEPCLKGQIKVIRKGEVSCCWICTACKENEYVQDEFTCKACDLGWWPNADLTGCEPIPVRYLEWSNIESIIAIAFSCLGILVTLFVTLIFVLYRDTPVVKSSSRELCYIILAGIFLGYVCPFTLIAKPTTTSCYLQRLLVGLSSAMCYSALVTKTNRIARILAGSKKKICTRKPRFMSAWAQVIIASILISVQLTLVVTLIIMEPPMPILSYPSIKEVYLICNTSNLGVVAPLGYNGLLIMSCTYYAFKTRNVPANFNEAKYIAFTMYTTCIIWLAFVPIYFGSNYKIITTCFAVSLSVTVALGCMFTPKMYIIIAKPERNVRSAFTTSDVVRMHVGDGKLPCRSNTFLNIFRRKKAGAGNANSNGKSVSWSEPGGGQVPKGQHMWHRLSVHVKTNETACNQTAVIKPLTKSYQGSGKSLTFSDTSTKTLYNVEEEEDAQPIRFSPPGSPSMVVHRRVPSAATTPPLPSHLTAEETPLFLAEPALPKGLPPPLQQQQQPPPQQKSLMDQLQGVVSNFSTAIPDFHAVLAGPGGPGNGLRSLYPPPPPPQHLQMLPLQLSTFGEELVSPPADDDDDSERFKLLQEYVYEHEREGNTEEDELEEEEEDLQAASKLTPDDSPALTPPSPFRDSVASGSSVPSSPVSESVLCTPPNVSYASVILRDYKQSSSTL

Target: Metabotropic glutamate receptor 1 (Homo sapiens, UniProt Q13255)
Assay: Effective concentration for half maximal stimulation of PI hydrolysis (mGluR1a)

Structure (SMILES): N[C@@]1(C(=O)O)CC[C@@H](C(=O)O)C1
- EC50: 22 µM
